Data taken from patent US20240199722A1, “NANOPLATFORM FOR TARGETING MACROPHAGE AND COMPOSITION FOR PREVENTION OR TREATMENT OF METASTATIC CANCER” (SEOUL NATIONAL UNIVERSITY R&DB FOUNDATION, priority 2021, published 2024).

Experiments:
[1] = tested on: Kupffer cells; assay: In vivo biodistribution by PET or SPECT after tail vein administration to normal mice (FIG. 6, 7)
From the text: An albumin-based nanoplatform, an albumin-based nanoplatform conjugated with a mannosyl group, and an albumin-based nanoplatform conjugated with a galactosyl group were each administered into a tail vein of mice (normal group), and changes in biodistribution over each of time were observed using PET (positron emission tomography) or SPECT (single-photon emission computed tomographt), and the results are shown in FIG. 6.
In addition, in order to clearly confirm the morphology, the liver tissue was sectioned to obtain a fluorescence image, and the results was shown in FIG. 7. A very clear image that was identical to the actual IHC result was able to be confirmed, and this was an image obtained by removing the liver after direct injection into an animal, which was not an ex-vivo result, and it is meaningful to confirm the actual action of mannosyl and galactosyl groups in the body.

[2] = tested on: macrophages at lung metastatic site; assay: Early diagnosis of cancer metastasis in the 4T1-luc model: FDG-PET versus 111In-MSA-FL SPECT/CT (FIG. 8); format: in vivo, mouse
From the text: In order to verify the possibility of early diagnosis of cancer metastasis of the albumin-based nanoplatform conjugated with the mannosyl group, a model that may represent cancer metastasis was reproduced and confirmed through tissue staining whether it could actually reflect metastasis.
In order to compare the albumin-based nanoplatform for targeting macrophages (MSA) obtained in Preparation Example 1 with the diagnostic method using FDG, which has been previously used in nuclear medicine imaging, 4T1-luc, wherein a fluorescent gene was introduced into the breast cancer cell line 4T1, was prepared, and cancer modeling was performed by injecting it into the femur of a mouse. This animal model is known to naturally cause metastasis to secondary organs after transplanting cancer cells into mice, and is especially known to cause metastasis to the lung area, similar to the pattern of existing breast cancer.
A mixture of two compounds was injected into 7, 14, 21, and 28 days-age mice after modeling, and FDG-PET images and ^111In-MSA-FL (MSA to which indium isotope and fluorescence were introduced) SPECT/CT images were obtained, and shown in FIG. 8(a).
Very small volume macrophage entry sites or metastasis sites that could not be identified even with the previously widely used modalities MRI and CT could be identified with very high sensitivity using nuclear medicine imaging.
As a result, the diagnostic method using the albumin-based nanoplatform (MSA) for targeting macrophages was able to diagnose cancer metastasis on Day 21, but the diagnostic method using FDG was able to diagnose metastasis on Day 28, and it was confirmed that the diagnostic method using nanoplatform of the present disclosure can diagnose cancer metastasis earlier than the prior art. In particular, it was shown that the degree of metastasis can be reflected and expressed through nuclear medicine imaging and quantification.

[3] = tested on: CD206 target macrophage; assay: Uptake and macrophage phenotype shift in M1- and M2-polarized macrophages (FIG. 5); format: cell-based
From the text: In addition, the results of an experiment to confirm the activity targeting inflammatory type of macrophage of the albumin-based nanoplatform for targeting macrophages according to the present disclosure were shown in FIG. 5.
(M1 polarization, macrophages with low expression of CD206) and MSA^+ cells (M2 polarization, macrophages with high expression of CD206), respectively.
In addition, the MHCII^+, iNOS^+, and TNFα^+ data in FIG. 5 are indicators of the activity of M1-type of macrophages, and when the albumin platform into which mannose was introduced to M2-type macrophages was treated at different concentrations, it was confirmed that the expression level of the indicators showing M1 activity in M2-type of macrophages increased (MSA induces macrophage phenotype shift).

[4] = tested on: lung metastasis; assay: Nuclear medicine imaging in Low meta and High meta models, cancer cells injected into tail vein (FIG. 9); format: in vivo, mice; details: isotopically labeled MSA
Procedure: In addition, in order to directly show the correlation between the degree of uptake of the metastatic site and the degree of metastasis of the MSA thus constructed, a model wherein cancer cells were directly injected into a tail vein of mice to directly inject the cancer cells into the lungs and immediately cause metastasis, rather than using the existing model of natural metastasis from the primary cancer to the lungs, were prepared. Low meta (low metastasis) and High meta (high metastasis) models were prepared by varying the number of injected cancer cells to obtain nuclear medicine images by injecting isotopically labeled MSA, and the results of nuclear medicine quantification were shown in FIG. 9.

[5] = target: T1, CD206 (Mus musculus, UniProt Q61830); assay: In vitro uptake of the nanoplatform in 4T1, GM-BMM and M-BMM cells (specific target image, FIG. 4); format: cell-based
T1 construct: primary macrophages (M-BMM) differentiated into M-SCF, cells with high CD206 expression; endogenous in cells; host or cells: primary macrophages GM-BMM (low CD206) and M-BMM (high CD206); 4T1 mouse breast cancer cells as comparison
T1 sequence (Q61830 20-1456): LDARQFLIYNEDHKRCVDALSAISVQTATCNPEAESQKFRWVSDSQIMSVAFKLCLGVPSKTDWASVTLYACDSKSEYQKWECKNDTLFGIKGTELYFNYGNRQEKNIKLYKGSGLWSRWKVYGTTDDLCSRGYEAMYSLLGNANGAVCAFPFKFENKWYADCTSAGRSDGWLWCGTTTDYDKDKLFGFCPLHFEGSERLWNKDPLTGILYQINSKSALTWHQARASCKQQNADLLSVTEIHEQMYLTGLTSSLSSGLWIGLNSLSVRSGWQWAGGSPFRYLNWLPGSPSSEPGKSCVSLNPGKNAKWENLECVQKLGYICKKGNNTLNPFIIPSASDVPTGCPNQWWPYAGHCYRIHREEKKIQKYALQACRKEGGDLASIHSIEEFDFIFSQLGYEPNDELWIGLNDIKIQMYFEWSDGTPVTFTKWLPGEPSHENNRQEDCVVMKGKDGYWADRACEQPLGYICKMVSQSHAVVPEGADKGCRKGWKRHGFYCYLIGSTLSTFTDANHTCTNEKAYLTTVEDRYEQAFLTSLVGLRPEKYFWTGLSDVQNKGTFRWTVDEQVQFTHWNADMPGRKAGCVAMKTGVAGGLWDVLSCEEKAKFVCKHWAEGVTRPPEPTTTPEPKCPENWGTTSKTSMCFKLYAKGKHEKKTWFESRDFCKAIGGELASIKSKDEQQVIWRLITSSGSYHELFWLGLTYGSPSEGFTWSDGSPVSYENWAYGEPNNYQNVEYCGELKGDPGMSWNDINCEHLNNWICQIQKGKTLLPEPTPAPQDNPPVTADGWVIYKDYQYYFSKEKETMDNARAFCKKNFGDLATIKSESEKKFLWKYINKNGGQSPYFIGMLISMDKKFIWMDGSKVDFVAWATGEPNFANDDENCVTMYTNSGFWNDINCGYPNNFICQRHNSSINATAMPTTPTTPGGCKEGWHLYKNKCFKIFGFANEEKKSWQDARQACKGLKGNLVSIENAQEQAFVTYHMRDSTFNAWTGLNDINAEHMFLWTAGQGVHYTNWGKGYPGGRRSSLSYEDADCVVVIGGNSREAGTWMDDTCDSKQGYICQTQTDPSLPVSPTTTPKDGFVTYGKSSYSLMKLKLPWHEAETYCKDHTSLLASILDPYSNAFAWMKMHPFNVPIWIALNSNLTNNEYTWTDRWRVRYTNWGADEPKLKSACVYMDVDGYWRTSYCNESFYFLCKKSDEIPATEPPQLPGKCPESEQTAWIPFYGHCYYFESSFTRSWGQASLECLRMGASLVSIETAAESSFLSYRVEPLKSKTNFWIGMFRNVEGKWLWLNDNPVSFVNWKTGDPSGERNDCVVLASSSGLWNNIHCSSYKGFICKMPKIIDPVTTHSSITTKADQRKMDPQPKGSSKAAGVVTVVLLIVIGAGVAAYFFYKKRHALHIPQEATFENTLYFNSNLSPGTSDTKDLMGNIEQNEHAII
Procedure: An experiment was performed to confirm whether HSA-ADIBO conjugated with a mannosyl group, as obtained in Preparation Example 1 was targeted to tumor tissue.
The mouse breast cancer cell line 4T1, primary macrophages (GM-BMM) differentiated into GM-SCF, macrophages with relatively low CD206 expression, and primary macrophages (M-BMM) differentiated into M-SCF, cells with high CD206 expression, were prepared, respectively, and then the nanoplatform obtained in Preparation Example 1 was infused.
Referring to FIG. 4, it was confirmed that the uptake of the nanoplatform was low in cells with low CD206 expression, and the uptake of the nanoplatform was high in cells with high CD206 expression, confirming that the nanoplatform according to the present disclosure is capable of targeting CD206.

Substance: MSA: HSA-ADIBO click-conjugated with Man-N3 (mannosyl groups), optionally with FNR648-N3 and/or radiolabelled NOTA-N3; Preparation Example 1
- biodistribution over time [1]: strong liver intake by Kupffer cells was confirmed over a long time
- time at which cancer metastasis could be diagnosed ([2]; day after modeling): 21 days
- nuclear medicine signal/image in the lung area before metastasis ([2]; imaging on days 7, 14, 21, 28): very clear images in the lung area on Day 21
- uptake at the metastatic site, statistical significance ([2]; quantification FIG. 8(b)): significant difference at each week
- expression level of indicators of M1 activity (MHCII+, iNOS+, TNFα+) ([3]; M2-type macrophages treated at different concentrations): increased
- uptake pattern according to MSA processing amount ([3]; MSA+ cells (M2 polarization, high expression of CD206)): most cells ingested the added amount
- MSA MFI, mean fluorescence intensity ([3]; MSA+ cells, according to the amount added): proportional to the amount added
- uptake pattern according to MSA processing amount ([3]; MSA- cells (M1 polarization, low expression of CD206)): selective uptake was not achieved
- relation of intake to degree of metastasis [4]: there was a correlation between intake and degree of metastasis
- uptake of the nanoplatform ([5]; cells with high CD206 expression): high
- uptake of the nanoplatform ([5]; cells with low CD206 expression): low

Substance: albumin-based nanoplatform conjugated with a galactosyl group: HSA-ADIBO click-conjugated with Gal-N3 (1-(2-Azidoethoxy)-beta-D-galactopyranose)
- biodistribution over time [1]: hepatobiliary excretion is shown through the gall bladder
